Screens (PubChem)
This is a sample that favours compounds with a hit; in the whole collection about 16% have one here.
TDP1 block = inhibitors of human tyrosyl-DNA phosphodiesterase TDP1; actives 0.28% (n = 350,000); AID 485290; Q9NUW8; recombinant TDP1, AlphaScreen DNA substrate cleavage; Potency, µM (titrated, usually from 130 µM), inactives show at the top dose activity change, negative = inhibition, hits mostly inhibitors; also: potency is read from the fitted curve at half-maximal effect; % is scaled to controls: 0 for no effect and ±100 for the full control effect; nearly all actives have a fitted effect of over 40% in size
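Here, a 5' biotin and 3' phosphotyrosine-FITC DNA oligonucleotide reports Tdp1 activity: intact substrate bridges AlphaScreen beads, while cleavage leaves a 3' phosphate and drops signal. All incubations at room temperature.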
TDP1 cell CPT = growth inhibition of DT40 Tdp1-/-;hTDP1 cells with camptothecin (screen for TDP1 inhibitors); actives 12% (n = 420,000); chicken DT40 Tdp1-/-;hTDP1 cells + 20 nM CPT, ATP luminescence, 48 h; AID 686979; Potency, µM (doses to about 46.2 µM), for inactives: top-dose activity change, negative = growth inhibition, usual class: inhibitors; also: potency is read from the fitted curve at half-maximal effect; % is scaled to controls: 0 for no effect and ±100 for the full control effect; nearly all actives have a fitted effect of over 55% in size
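Cell growth measured by CellTiter-Glo luminescence after a minimum 48 h, 37 C compound exposure with 20 nM CPT in Tdp1-knockout DT40 cells stably expressing hTDP1, seeded 400/well; qHTS titration format.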
miR-21 reporter = miR-21 reporter, rising signal | HeLa miR-21 FLuc reporter, luciferase, 48 h | Potency, µM (top dose mostly 38.3 µM), inactives show at the top dose reporter change, positive = more light | 340,000 tested, under 10 active | AID 2288; active = well fitted rising curve with a large enough effect; inconclusive = small, poorly fitted or top-dose-only effect; inactive = no such curve, though single readings can be large or run the other way;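 further: % of control where 0% means no effect; miR-21 action dims this reporter so a rising signal means less miR-21 action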
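HeLa miR-21-FLuc reporter line, endogenous miR-21; 2000 cells/well in DMEM/10% FBS; compound titration up to ~40uM final, 48 h, 37 degree Celsius; luciferase detection reagent, 15 min lysis, CCD luminescence.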
DT40 TDP1 no CPT = qHTS for Inhibitors of human tyrosyl-DNA phosphodiesterase 1 (TDP1): qHTS in cells in absence of CPT. actives 15% (n = 420,000). Potency, µM (series often up to 46.2 µM), for inactives: at the top dose activity change, negative = growth inhibition, usual class: inhibitors. DT40 Tdp1-/- hTDP1 cells, no CPT, ATP luminescence, 48 h. AID 686978, 2013; also: potency is read from the fitted curve at half-maximal effect; % is scaled to controls: 0 for no effect and ±100 for the full control effect; nearly all actives have a fitted effect of over 55% in size
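DT40 Tdp1-/-;hTDP1 cells, no CPT (DMSO vehicle only), 400 cells/well; compounds pin-transferred; ≥48 hr, 37 °C; CellTiter-Glo 30 min RT dark, luminescence read.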
uPA surface inh = blocks generation of uPA at the cell surface; cell surface uPA generation assay, qHTS; actives 0.31% (n = 330,000); Potency, µM (doses to about 38.3 µM), for inactives: at the highest dose activity change, negative = inhibition, hits mostly inhibitors; active = well fitted inhibition curve with a large enough effect; inconclusive = small, poorly fitted or top-dose-only effect; inactive = no such curve, though single readings can be large or run the other way; tested in mouse RAW 264.7 cells; also: potency is read from the fitted curve at half-maximal effect; % is scaled to controls: 0 for no effect and ±100 for the full control effect; nearly all actives have a fitted effect of over 55% in size
An asterisk follows results filed as active; [ ] = dose if it differs, or a comment. Unless noted, calls follow the shape of the dose curve; as a rule, active = well fitted curve in the direction sought with a large enough effect; inconclusive = small, poorly fitted or top-dose-only effect, or another doubt; inactive = no such curve, though single readings can be large; an effect the other way counts as inactive or inconclusive.

For Cc1ccc(Cl)c(NC(=O)CN2C(=O)C(C)N(c3ccc(F)cc3)C2=O)c1Cl (centres undefined) the results were TDP1 cell CPT -28% and DT40 TDP1 no CPT inconclusive.
`COC(=O)Cc1c(C)nc2nc(NCc3ccc(Cl)cc3)[nH]n2c1=O` gave TDP1 block 8%, TDP1 cell CPT -17%, miR-21 reporter -18%, DT40 TDP1 no CPT -18% and uPA surface inh 3%.
For CCc1c(C)nc2nncn2c1NCc1ccc(Cl)cc1 the results were TDP1 block -2%, TDP1 cell CPT 8.2µM*, miR-21 reporter inconclusive and DT40 TDP1 no CPT 4.6µM*.
`Cc1nc2nncn2c(Nc2ccccc2)c1C` gave TDP1 block 9%, TDP1 cell CPT 21µM*, miR-21 reporter 1% and DT40 TDP1 no CPT 18µM*.
Cc1ccc(CNc2c(C)c(C)nc3nncn23)cc1 was read as TDP1 block 2%, TDP1 cell CPT 4.1µM*, miR-21 reporter 22% and DT40 TDP1 no CPT 1.2µM*.
Cc1ccccc1Nc1c2c(nc3nncn13)CCC2 was read as TDP1 block 2%, TDP1 cell CPT inconclusive, miR-21 reporter -33% and DT40 TDP1 no CPT inconclusive.
`COc1ccc(N2CCN(CCC3Oc4cc([N+](=O)[O-])ccc4NC3=O)CC2)cc1` (centres undefined) gave TDP1 block 8%, TDP1 cell CPT inconclusive, miR-21 reporter 5%, DT40 TDP1 no CPT inconclusive and uPA surface inh 2%.
For Cc1cccc(/C=N/NC(=O)c2ccncc2)n1 the results were TDP1 cell CPT 9%, miR-21 reporter -3%, DT40 TDP1 no CPT -18% and uPA surface inh -11%.
Screening O=C(c1cc2cc(Cl)ccc2o1)N1CCCC1 returned TDP1 block 3%, TDP1 cell CPT 12%, miR-21 reporter -50%, DT40 TDP1 no CPT -26% and uPA surface inh -3%.
Screening O=C(c1cc2cc(Br)ccc2o1)N1CCCCC1 returned TDP1 block -8%, TDP1 cell CPT inconclusive, miR-21 reporter -59%, DT40 TDP1 no CPT 21µM* and uPA surface inh 0%.
Screening O=C1CC(N2CCCCCC2)C(=O)N1c1ccc2c(c1)OCO2 (centres undefined) returned TDP1 block 9%, TDP1 cell CPT 3.7µM*, miR-21 reporter -5%, DT40 TDP1 no CPT 6.3µM* and uPA surface inh 2%.
`CCCCNC(=O)CSc1nc2ccc(Nc3nc(N4CCOCC4)nc(N4CCOCC4)n3)cc2s1` gave TDP1 block 2%, TDP1 cell CPT 18µM*, miR-21 reporter 4%, DT40 TDP1 no CPT 9.2µM* and uPA surface inh -10%.
CCCCSc1nc2ccc(Nc3nc(N4CCOCC4)nc(N4CCOCC4)n3)cc2s1 was read as TDP1 block -2%, TDP1 cell CPT inconclusive, miR-21 reporter -9%, DT40 TDP1 no CPT 21µM* and uPA surface inh 2%.
For CCCCC(=O)Nc1ccc2nc(SCC(=O)N3CCOCC3)sc2c1 the results were TDP1 block 4%, TDP1 cell CPT inconclusive, miR-21 reporter -4% and DT40 TDP1 no CPT inconclusive.
Screening CC(C)NC(=O)C(=O)NCCCN1CCOCC1 returned TDP1 block 6%, TDP1 cell CPT 5%, miR-21 reporter 0%, DT40 TDP1 no CPT 4% and uPA surface inh 6%.
Screening CN1N=C(C(C)(C)C)CSC1=Nc1ccc(F)cc1 returned TDP1 block -4%, TDP1 cell CPT -16%, miR-21 reporter -4%, DT40 TDP1 no CPT inconclusive and uPA surface inh 3%.
CC(C)CC1C(=O)N(Cc2cn(CCC3OCCO3)nn2)CCS(=O)(=O)N1Cc1ccc(-c2ccc(F)cc2)cc1 (centres undefined) was read as TDP1 cell CPT inconclusive and DT40 TDP1 no CPT 23µM*.
`COc1ccc(-c2ccc(CN3C(CC(C)C)C(=O)N(Cc4cn(CCC5OCCO5)nn4)CCS3(=O)=O)cc2)cc1OC` (centres undefined) gave TDP1 cell CPT 21µM* and DT40 TDP1 no CPT 16µM*.
For COCOCCn1cc(CN2CCS(=O)(=O)N(Cc3ccc(-c4cccc(CO)c4)cc3)C(C)C2=O)nn1 (centres undefined) the results were TDP1 cell CPT 1% and DT40 TDP1 no CPT -15%.
Screening COc1ccc(-c2ccc(CN3C(C)C(=O)N(Cc4cn(CCC5OCCO5)nn4)CCS3(=O)=O)cc2)cc1OC (centres undefined) returned TDP1 cell CPT 18µM* and DT40 TDP1 no CPT 12µM*.
`CCc1cccc(N(C(=O)c2csnn2)C(C(=O)NC2CCCC2)c2cccnc2)c1` (centres undefined) gave TDP1 block 2%, TDP1 cell CPT 1%, miR-21 reporter 0%, DT40 TDP1 no CPT -6% and uPA surface inh 6%.
`Cc1cc(NC(=O)CN2CCC(C)CC2)no1` gave TDP1 block -3%, TDP1 cell CPT -9%, miR-21 reporter -2%, DT40 TDP1 no CPT -13% and uPA surface inh -8%.
`Cc1ccccc1-c1cc(C(=O)NCc2ccco2)n(CC2CC(c3cccnc3)=NO2)n1` (centres undefined) gave TDP1 block 2%, TDP1 cell CPT 18µM*, DT40 TDP1 no CPT 21µM* and uPA surface inh inconclusive.
Screening COc1ccc(C2=NOC(Cn3nc(-c4ccccc4)cc3C(=O)NCc3ccccc3OC)C2)cc1 (centres undefined) returned TDP1 block 1%, TDP1 cell CPT 12µM*, DT40 TDP1 no CPT 10µM* and uPA surface inh 9%.
`COc1ccccc1N(CC(=O)N1CCCCCC1)S(C)(=O)=O` gave TDP1 block 2%, TDP1 cell CPT 0%, miR-21 reporter -1%, DT40 TDP1 no CPT -6% and uPA surface inh 12%.
CN(C(=O)COc1ncnc2sccc12)C1CCCCC1 was read as TDP1 block -3%[56.1 µM], TDP1 cell CPT 14%, DT40 TDP1 no CPT 7% and uPA surface inh 11%.
`COc1ccc(/C=C/C(=O)NC(=S)NNC(=O)c2cc(OC)c(OC)c(OC)c2)cc1` gave TDP1 cell CPT inconclusive, miR-21 reporter 4%, DT40 TDP1 no CPT 9.2µM* and uPA surface inh -13%.
Screening COc1ccc(/C=C/C(=O)NC(=S)NCCc2ccc(OC)c(OC)c2)cc1 returned TDP1 block 3%, TDP1 cell CPT inconclusive, miR-21 reporter -3%, DT40 TDP1 no CPT inconclusive and uPA surface inh 3%.
COc1ccc(/C=C/C(=O)NC(=S)NNC(=O)c2cc(OC)c(OC)c(OC)c2)cc1OC was read as TDP1 block 5%, TDP1 cell CPT inconclusive, miR-21 reporter -7%, DT40 TDP1 no CPT 15µM* and uPA surface inh -3%.

Ordered by number of heavy atoms (low to high): four of the compounds above.
CN(C(=O)COc1ncnc2sccc12)C1CCCCC1 was read as TDP1 block -3%[56.1 µM], TDP1 cell CPT 14%, DT40 TDP1 no CPT 7% and uPA surface inh 11%.
`COc1ccccc1N(CC(=O)N1CCCCCC1)S(C)(=O)=O` gave TDP1 block 2%, TDP1 cell CPT 0%, miR-21 reporter -1%, DT40 TDP1 no CPT -6% and uPA surface inh 12%.
Screening COc1ccc(/C=C/C(=O)NC(=S)NCCc2ccc(OC)c(OC)c2)cc1 returned TDP1 block 3%, TDP1 cell CPT inconclusive, miR-21 reporter -3%, DT40 TDP1 no CPT inconclusive and uPA surface inh 3%.
COc1ccc(/C=C/C(=O)NC(=S)NNC(=O)c2cc(OC)c(OC)c(OC)c2)cc1OC was read as TDP1 block 5%, TDP1 cell CPT inconclusive, miR-21 reporter -7%, DT40 TDP1 no CPT 15µM* and uPA surface inh -3%.
